How the values were obtained:
sclera = tested on: sclera
Text: Orbital tissues were removed with scissors to expose the sclera. […] After the contact time, the eye was removed from the drug solution, and excess solution on the sclera was dabbed away with a Kimwipe. The eye was dissected using a scalpel blade and a pair of scissors to obtain a posterior scleral section on the temporal side near the optic nerve. The tissue section was placed onto a trephine punch to cut out a 9.5-mm diameter cross-section.
Quantitative assay of the amount of drug delivered—Experiments were performed for five drug contact times (four samples each): for the cornea, tc,cornea=0.25, 0.5, 1, 2, and 4 hrs, and for the sclera, tc,sclera=0.5, 2, 4, 7.5, and 120 hrs. Each experiment was repeated four times. […]
(§1) The concentration of the drug in the extract was determined using fluorimetry. […] The fluorescence of each extract was measured and concentration was determined based on calibration curves prepared for each compound using a series of solutions with known concentrations. The extraction process was repeated using successively longer extraction times until there was no detectable fluorescence in the supernatant. […]

cornea = tested on: cornea
Procedure: Siena for Medical Science supplied porcine eyes from 3-4 month old swine. Eyes were stored in ocular balanced saline solution on ice until use within 48 hours post mortem. […] The epithelial cell layer was removed by scraping with a scalpel. […] The drug solution containing the eye was gently agitated using a rocker for a specified “drug contact time” (tc,cornea ranging from 0 to 4 hours). After the drug contact time, the eye was removed from the drug solution, and excess solution on the cornea was dabbed away with a Kimwipe. The eye was dissected using a scalpel blade and a pair of scissors to cut around the corneoscleral limbus to separate out the cornea. […]
Quantitative assay of the amount of drug delivered—Experiments were performed for five drug contact times (four samples each): for the cornea, tc,cornea=0.25, 0.5, 1, 2, and 4 hrs, and for the sclera, tc,sclera=0.5, 2, 4, 7.5, and 120 hrs. […]
as §1

Which results are given for riboflavin-5′-monophosphate?
permeability (sclera): 0.050 μm/s; calculated permeability (cornea): 0.16 μm/s
